For one sequence, Kd results are on record in US7420037B2, “Heat shock protein-based vaccines and immunotherapies” (Antigenics Inc., priority 2003, dated 2008).

The assay addresses recombinant human or murine heat shock protein 70 (hsp70). The class given is binding. Conditions: read-out: Epitope alone: Affinity for hsp70.

In the case of SLLMWITQV [reference compound], the Kd came out at 114 µM.
